# PubChem BioAssay (NCI)
#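 The compound was tested at five concentrations on cells cultured in 96-well plates, with a 48-hour exposure period. Here, GI50 denotes the concentration required for 50% inhibition of growth. TGI denotes the concentration required for complete inhibition of growth.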
# Columns and labels:
# Experiment in all cases: NCI tumour cell line growth inhibition, 48 h
# UACC-257 melanoma = system: UACC-257 melanoma
# MDA-N = system: MDA-N
# UO-31 renal = system: UO-31 renal
# DU-145 prostate = system: DU-145 prostate
# NCI-H322M lung = system: NCI-H322M lung
# IGROV1 ovarian = system: IGROV1 ovarian
# HOP-92 NSCLC = system: HOP-92 NSCLC
# COLO 205 colon = system: COLO 205 colon
# M14 melanoma = system: M14 melanoma
# SK-MEL-28 melanoma = system: SK-MEL-28 melanoma
# SW-620 colon = system: SW-620 colon
# HT29 colon = system: HT29 colon
# HL-60(TB) leukemia = system: HL-60(TB) leukemia
# TK-10 renal = system: TK-10 renal
# CAKI-1 renal = system: CAKI-1 renal
# K-562 leukemia = system: K-562 leukemia
# SF-539 CNS = system: SF-539 CNS
# SR leukemia = system: SR leukemia
# 786-0 renal = system: 786-0 renal
# HS 578T breast = system: HS 578T breast
# UACC-62 melanoma = system: UACC-62 melanoma
# PC-3 prostate = system: PC-3 prostate
# HOP-62 NSCLC = system: HOP-62 NSCLC
# A549 NSCLC = system: A549 NSCLC
# HCC-2998 colon = system: HCC-2998 colon
# HCT-15 colon = system: HCT-15 colon
# MCF7 breast = system: MCF7 breast
# NCI/ADR-RES ovarian = system: NCI/ADR-RES ovarian
# OVCAR-4 ovarian = system: OVCAR-4 ovarian
# ACHN renal = system: ACHN renal
# SK-OV-3 ovarian = system: SK-OV-3 ovarian
# NCI-H226 lung = system: NCI-H226 lung
# MDA-MB-231 breast = system: MDA-MB-231 breast
# MALME-3M melanoma = system: MALME-3M melanoma
# KM12 colon = system: KM12 colon
# OVCAR-5 ovarian = system: OVCAR-5 ovarian
# RPMI-8226 leukemia = system: RPMI-8226 leukemia
# U251 CNS = system: U251 CNS
# MDA-MB-435 = system: MDA-MB-435
# HCT-116 colon = system: HCT-116 colon
# SF-268 CNS = system: SF-268 CNS
# LOX IMVI melanoma = system: LOX IMVI melanoma
# MOLT-4 leukemia = system: MOLT-4 leukemia
# EKVX NSCLC = system: EKVX NSCLC
# SF-295 CNS = system: SF-295 CNS
# RXF 393 renal = system: RXF 393 renal
# OVCAR-3 ovarian = system: OVCAR-3 ovarian
# T-47D breast = system: T-47D breast
# SN12C renal = system: SN12C renal
# OVCAR-8 ovarian = system: OVCAR-8 ovarian
# SNB-19 CNS = system: SNB-19 CNS
# CCRF-CEM leukemia = system: CCRF-CEM leukemia
# SK-MEL-5 melanoma = system: SK-MEL-5 melanoma
# NCI-H23 lung = system: NCI-H23 lung
# NCI-H460 lung = system: NCI-H460 lung
# SK-MEL-2 melanoma = system: SK-MEL-2 melanoma
compound,measurement,setting,value
n1[nH]nc2c1c1n[nH]nc1c1n[nH]nc21,GI50,UACC-257 melanoma,> 100 µM
same,TGI,UACC-257 melanoma,> 100 µM
same,GI50,MDA-N,> 100 µM
same,TGI,MDA-N,> 100 µM
same,GI50,UO-31 renal,> 100 µM
same,TGI,UO-31 renal,> 100 µM
same,GI50,DU-145 prostate,> 100 µM
same,TGI,DU-145 prostate,> 100 µM
same,GI50,NCI-H322M lung,> 100 µM
same,TGI,NCI-H322M lung,> 100 µM
same,GI50,IGROV1 ovarian,> 100 µM
same,TGI,IGROV1 ovarian,> 100 µM
same,GI50,HOP-92 NSCLC,> 100 µM
same,TGI,HOP-92 NSCLC,> 100 µM
same,GI50,COLO 205 colon,> 100 µM
same,TGI,COLO 205 colon,> 100 µM
same,GI50,M14 melanoma,> 100 µM
same,TGI,M14 melanoma,> 100 µM
same,GI50,SK-MEL-28 melanoma,> 100 µM
same,TGI,SK-MEL-28 melanoma,> 100 µM
same,GI50,SW-620 colon,> 100 µM
same,TGI,SW-620 colon,> 100 µM
same,GI50,HT29 colon,> 100 µM
same,TGI,HT29 colon,> 100 µM
same,GI50,HL-60(TB) leukemia,> 100 µM
same,TGI,HL-60(TB) leukemia,> 100 µM
same,GI50,TK-10 renal,> 100 µM
same,TGI,TK-10 renal,> 100 µM
same,GI50,CAKI-1 renal,> 100 µM
same,TGI,CAKI-1 renal,> 100 µM
same,GI50,K-562 leukemia,> 100 µM
same,TGI,K-562 leukemia,> 100 µM
same,GI50,SF-539 CNS,> 100 µM
same,TGI,SF-539 CNS,> 100 µM
same,GI50,SR leukemia,> 100 µM
same,TGI,SR leukemia,> 100 µM
same,GI50,786-0 renal,> 100 µM
same,TGI,786-0 renal,> 100 µM
same,GI50,HS 578T breast,> 100 µM
same,TGI,HS 578T breast,> 100 µM
same,GI50,UACC-62 melanoma,> 100 µM
same,TGI,UACC-62 melanoma,> 100 µM
same,GI50,PC-3 prostate,> 100 µM
same,TGI,PC-3 prostate,> 100 µM
same,GI50,HOP-62 NSCLC,> 100 µM
same,TGI,HOP-62 NSCLC,> 100 µM
same,GI50,A549 NSCLC,> 100 µM
same,TGI,A549 NSCLC,> 100 µM
same,GI50,HCC-2998 colon,> 100 µM
same,TGI,HCC-2998 colon,> 100 µM
same,GI50,HCT-15 colon,> 100 µM
same,TGI,HCT-15 colon,> 100 µM
same,GI50,MCF7 breast,> 100 µM
same,TGI,MCF7 breast,> 100 µM
same,GI50,NCI/ADR-RES ovarian,> 100 µM
same,TGI,NCI/ADR-RES ovarian,> 100 µM
same,GI50,OVCAR-4 ovarian,> 100 µM
same,TGI,OVCAR-4 ovarian,> 100 µM
same,GI50,ACHN renal,> 100 µM
same,TGI,ACHN renal,> 100 µM
same,GI50,SK-OV-3 ovarian,> 100 µM
same,TGI,SK-OV-3 ovarian,> 100 µM
same,GI50,NCI-H226 lung,> 100 µM
same,TGI,NCI-H226 lung,> 100 µM
same,GI50,MDA-MB-231 breast,> 100 µM
same,TGI,MDA-MB-231 breast,> 100 µM
same,GI50,MALME-3M melanoma,> 100 µM
same,TGI,MALME-3M melanoma,> 100 µM
same,GI50,KM12 colon,> 100 µM
same,TGI,KM12 colon,> 100 µM
same,GI50,OVCAR-5 ovarian,> 100 µM
same,TGI,OVCAR-5 ovarian,> 100 µM
same,GI50,RPMI-8226 leukemia,> 100 µM
same,TGI,RPMI-8226 leukemia,> 100 µM
same,GI50,U251 CNS,> 100 µM
same,TGI,U251 CNS,> 100 µM
same,GI50,MDA-MB-435,> 100 µM
same,TGI,MDA-MB-435,> 100 µM
same,GI50,HCT-116 colon,> 100 µM
same,TGI,HCT-116 colon,> 100 µM
same,GI50,SF-268 CNS,> 100 µM
same,TGI,SF-268 CNS,> 100 µM
same,GI50,LOX IMVI melanoma,> 100 µM
same,TGI,LOX IMVI melanoma,> 100 µM
same,GI50,MOLT-4 leukemia,> 100 µM
same,TGI,MOLT-4 leukemia,> 100 µM
same,GI50,EKVX NSCLC,> 100 µM
same,TGI,EKVX NSCLC,> 100 µM
same,GI50,SF-295 CNS,> 100 µM
same,TGI,SF-295 CNS,> 100 µM
same,GI50,RXF 393 renal,> 100 µM
same,TGI,RXF 393 renal,> 100 µM
same,GI50,OVCAR-3 ovarian,> 100 µM
same,TGI,OVCAR-3 ovarian,> 100 µM
same,GI50,T-47D breast,> 100 µM
same,TGI,T-47D breast,> 100 µM
same,GI50,SN12C renal,> 100 µM
same,TGI,SN12C renal,> 100 µM
same,GI50,OVCAR-8 ovarian,> 100 µM
same,TGI,OVCAR-8 ovarian,> 100 µM
same,GI50,SNB-19 CNS,> 100 µM
same,TGI,SNB-19 CNS,> 100 µM
same,GI50,CCRF-CEM leukemia,> 100 µM
same,TGI,CCRF-CEM leukemia,> 100 µM
same,GI50,SK-MEL-5 melanoma,> 100 µM
same,TGI,SK-MEL-5 melanoma,> 100 µM
same,GI50,NCI-H23 lung,> 100 µM
same,TGI,NCI-H23 lung,> 100 µM
same,GI50,NCI-H460 lung,> 100 µM
same,TGI,NCI-H460 lung,> 100 µM
same,GI50,SK-MEL-2 melanoma,> 100 µM
same,TGI,SK-MEL-2 melanoma,> 100 µM
